Measurements taken from paper PMC6441019, “Prospective discovery of small molecule enhancers of an E3 ligase-substrate interaction” (Nature Communications, 2019).

Chains of the proteins cited; added tags and fusions are not shown. Residues count along the entry.
UniProt P35222, 17-48 S33E/S37A limits assumed: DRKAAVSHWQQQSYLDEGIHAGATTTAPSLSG
UniProt Q9Y297, 1-569 isoform Q9Y297-2, stated change not applied: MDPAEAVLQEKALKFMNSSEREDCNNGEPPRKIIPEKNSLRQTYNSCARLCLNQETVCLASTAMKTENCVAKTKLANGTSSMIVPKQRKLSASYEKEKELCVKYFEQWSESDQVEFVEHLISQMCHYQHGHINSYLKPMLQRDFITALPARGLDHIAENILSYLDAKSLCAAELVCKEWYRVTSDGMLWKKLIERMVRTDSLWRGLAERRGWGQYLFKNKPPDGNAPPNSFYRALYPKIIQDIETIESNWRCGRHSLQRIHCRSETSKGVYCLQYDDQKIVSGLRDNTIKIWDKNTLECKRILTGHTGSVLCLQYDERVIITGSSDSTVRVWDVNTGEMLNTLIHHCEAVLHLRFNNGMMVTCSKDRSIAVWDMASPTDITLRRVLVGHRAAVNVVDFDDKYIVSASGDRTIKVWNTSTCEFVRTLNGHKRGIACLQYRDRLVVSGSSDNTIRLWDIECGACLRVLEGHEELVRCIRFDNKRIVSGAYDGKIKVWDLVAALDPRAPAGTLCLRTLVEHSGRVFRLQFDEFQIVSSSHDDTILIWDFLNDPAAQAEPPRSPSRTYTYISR

Target: T1, S33E/S37A β-catenin peptide binding to β-TrCP (Homo sapiens, UniProt P35222+Q9Y297, S33E/S37A)
T1 construct: titrating BODIPY-FL-labeled β-catenin peptides (residues 17-48) against 300 pM β-TrCP; 6xHis-SMT3 (N, cleaved yes); made in house; host or cells: E. coli (co-expressed with BirA)
Assay: TR-FRET binding enhancement assay, S33E/S37A peptide
Settings: 1% binding saturation
Method: Compounds were incubated in a 20 μl reaction volume with 300 pM biotinylated β-TrCP/Skp1 preincubated with 1.2 nM terbium-coupled streptavidin (Cisbio) and BODIPY-FL labeled β-catenin peptides (see figure legends for peptide details) in a white 384-well microplate (Perkin Elmer ProxiPlate), using a PBS buffer containing 0.01% Triton X-100 and 2 mM DTT with 2% final DMSO. […] Following 1-h incubation, plates were read for TR-FRET signal after excitation at 320 nm and read at 520 and 620 nm using an EnVision plate reader (Perkin Elmer). TR-FRET signal was calculated using a 520/620 nm ratio. Binding and enhancement data were fit to a standard Hill equation (Y = Bmin + (Bmax − Bmin)(X^h)/(X^h + EC50^h)) in Prism (GraphPad). Errors are standard error of the fit.

EC50: 530 ± 20 nM
Structure (SMILES): COc1cc2c(cc1OC)CN(C(=O)c1c(Sc3c(Cl)cccc3Cl)cc(C(F)(F)F)[nH]c1=O)C2 [NRX-252262]
